Experiments:
[1] = system: human foreskin fibroblasts (HF); assay: effect on cells: appearance of fixed, crystal violet-stained monolayer (HF); assay type: cell-based; set-up: key: N, no effect on the appearance of the alcohol-fixed and crystal violet-stained cell monolayer at the indicated compound concentration.; L, lightening of the intensity of staining (compared to controls) of the alcohol-fixed and crystal violet-stained cell monolayer at the indicated compound concentration but not at half that concentration; conditions: at 75 µg/ml
vero cells = assay: effect on cells: appearance of fixed, crystal violet-stained monolayer (vero); assay type: cell-based, African green monkey; set-up: key: N, no effect on the appearance of the alcohol-fixed and crystal violet-stained cell monolayer at the indicated compound concentration.; L, lightening of the intensity of staining (compared to controls) of the alcohol-fixed and crystal violet-stained cell monolayer at the indicated compound concentration but not at half that concentration; conditions: at 75 µg/ml

In the case of “4',4-Bis-{4,6-bis-[3-(bis-carbamoylmethyl-1-sulfamoyl)-phenylamino]-[1,3,5]triazin-2-ylamino}-biphenyl-2,2'-dicarboxylic acid, disodium salt [Example 44]”, the “Effect on cells @ µg/ml indicated HF” value [1] is reported as “L@75” and the “Effect on cells @ µg/ml indicated Vero” value (vero cells) is reported as “L@75”.

Source: EP0795549A1, “Bis-aryloxy(amino)-triazinyl-oxy(amino)aryl derivatives, their preparation and their use as antiviral agents” (American Cyanamid Company, priority 1996, dated 1997)
